These are literature values, as cited in patent US20160183526A1, “FUNGICIDAL COMPOSITIONS” (Dow AgroSciences LLC, priority 2014, published 2016).

The conditions of the data set: estimated from a survey of the literature; miscible means totally soluble in water in all amounts; cited from earlier work.

Turning to Butylene carbonate, the “Solubility of Solvent in Water” value is 7000 µg/mL.
